According to ChEMBL document CHEMBL1156476, “Inhibition of mammalian target of rapamycin signaling by 2-(morpholin-1-yl)pyrimido[2,1-alpha]isoquinolin-4-one” (J Biol Chem, 2007):

Assay: Inhibition of PI3K

Question: With O=c1cc(N2CCOCC2)oc2c(-c3ccccc3)cccc12 [LY-294002] as the compound, how does the IC50 read?
Answer: 3 µM
